Measurements taken from patent publication US20070037785A1, “Novel dipeptidyl peptidase IV inhibitors used for functionally influencing different cells and treating immunological, infammatory, neuronal, and other diseases” (priority 2003, published 2007).

By UniProt entry, the sequences of proteins in these tests, tags left out.
UniProt P27487, whole entry, species assumed: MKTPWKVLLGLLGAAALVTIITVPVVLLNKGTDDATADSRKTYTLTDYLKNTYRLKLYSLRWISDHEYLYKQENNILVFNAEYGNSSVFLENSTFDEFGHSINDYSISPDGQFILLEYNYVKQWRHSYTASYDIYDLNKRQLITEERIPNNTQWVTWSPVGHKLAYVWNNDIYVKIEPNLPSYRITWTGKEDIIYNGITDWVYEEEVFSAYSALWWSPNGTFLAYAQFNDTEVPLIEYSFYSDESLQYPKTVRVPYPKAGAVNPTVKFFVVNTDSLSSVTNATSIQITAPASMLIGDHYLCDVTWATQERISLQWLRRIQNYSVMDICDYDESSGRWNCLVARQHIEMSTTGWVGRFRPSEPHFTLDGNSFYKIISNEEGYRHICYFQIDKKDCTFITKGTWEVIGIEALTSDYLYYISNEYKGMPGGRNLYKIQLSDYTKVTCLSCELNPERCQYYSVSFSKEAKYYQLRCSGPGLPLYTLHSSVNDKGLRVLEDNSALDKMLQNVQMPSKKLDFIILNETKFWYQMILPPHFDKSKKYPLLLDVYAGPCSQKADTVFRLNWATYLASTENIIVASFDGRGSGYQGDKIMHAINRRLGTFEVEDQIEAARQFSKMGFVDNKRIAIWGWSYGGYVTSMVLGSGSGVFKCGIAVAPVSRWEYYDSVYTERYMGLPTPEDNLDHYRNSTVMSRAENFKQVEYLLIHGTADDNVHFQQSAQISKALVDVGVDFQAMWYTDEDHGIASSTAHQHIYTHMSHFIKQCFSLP

Molecular target: dipeptidyl peptidase IV (Homo sapiens, UniProt P27487)
Assay: biochemical
Conditions: IC50DPIV

CC(=O)CCc1oc2ccc([N+](=O)[O-])cc2c1-c1ccc(C)o1 [D3.031]
IC50: 25.4 µM
